Tests used:
VDR (pGal4-VDR-LBD) = VDR (pGal4-VDR-LBD) (Homo sapiens, UniProt P11473); assay: VDR CTF (Caco-2 cell co-transfection assay); details: read-out: VDR CTF (Caco-2 cells) EC50
[1] = target: RXR-VDR heterodimer (Gal4-RXR-DEF and VP16-VDR-LBD) (Homo sapiens, UniProt P11473); assay: RXR-VDR heterodimerization assay (SaOS-2 cells); details: read-out: RXR-VDR (SaOS-2 cells) EC50

The chains behind the UniProt entries cited, without tags or fusion partners. Residues count along the entry.
UniProt P11473, 127-423 limits assumed: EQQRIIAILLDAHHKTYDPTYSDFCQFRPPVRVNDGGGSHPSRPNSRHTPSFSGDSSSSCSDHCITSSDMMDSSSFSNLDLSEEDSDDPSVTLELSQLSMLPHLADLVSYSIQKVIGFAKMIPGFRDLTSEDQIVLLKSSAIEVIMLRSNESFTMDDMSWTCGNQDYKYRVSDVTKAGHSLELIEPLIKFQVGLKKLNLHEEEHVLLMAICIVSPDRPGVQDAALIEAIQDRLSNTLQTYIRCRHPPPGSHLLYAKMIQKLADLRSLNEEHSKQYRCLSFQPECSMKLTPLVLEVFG

| Compound | EC50 (VDR (pGal4-VDR-LBD)) [nM] | EC50 [1] [nM] |
| --- | --- | --- |
| CCC(CC)(c1ccc(OCC(O)C(C)(C)C)c(C)c1)c1cc(C)c(S(=O)(=O)NC(C)=O)s1 (stereo not drawn) | 2410 | 732 |
| CCC(C)[C@H](NC(=O)c1sc(C(CC)(CC)c2ccc(OCC(O)C(C)(C)C)c(C)c2)cc1C)C(=O)O (stereo partly drawn) |  | 559 |
| CCC(CC)(c1ccc(CCC(O)C(C)(C)C)c(C)c1)c1cc(C)c(C(=O)NCC(=O)O)s1 (stereo not drawn) |  | 362 |
| CCCc1cc(C(CC)(CC)c2ccc(C(=O)N[C@@H](C)C(=O)O)s2)ccc1OCC(C)(O)C(C)(C)C (single isomer, unassigned) | 85 | 8.13 |
| CCc1cc(C(CC)(CC)c2ccc(S(=O)(=O)NCC(=O)OC)s2)ccc1OCC(O)C(C)(C)C (single isomer, unassigned) | 470 | 171 |
| CCC(CC)(c1ccc(CCC(O)C(C)(C)C)c(C)c1)c1cc(C)c(C(=O)O)s1 (stereo not drawn) |  | 688 |
| CCCc1cc(C(CC)(CC)c2ccc(C(=O)O)s2)ccc1OCC(C)(O)C(C)(C)C (stereo not drawn) | 320 | 189 |
| CCC(CC)(c1ccc(OCC(=O)C(C)(C)C)c(C)c1)c1cc(C)c(C(=O)N(C)OC)s1 | 1670 | 23.8 |
| CCC(CC)(c1ccc(OCC(O)C(C)(C)C)c(C)c1)c1cc(C)c(C(=O)NCC(=O)OC)s1 (stereo not drawn) | 856 | 2.5 |
| CCc1cc(C(CC)(CC)c2ccc(S(=O)(=O)NCC(=O)O)s2)ccc1OCC(O)C(C)(C)C (single isomer, unassigned) | 799 | 271 |
| CCC(CC)(c1ccc(OCC(C)(O)C(C)(C)C)c(C)c1)c1ccc(C(=O)O)s1 (stereo not drawn) | 1280 | 548 |
| CCCc1cc(C(CC)(CC)c2ccc(C(=O)O)s2)ccc1OCC(C)(O)C(C)(C)C (single isomer, unassigned) | 658 | 485 |
| CCCc1cc(C(CC)(CC)c2ccc(C(=O)O)s2)ccc1OCC(O)C(C)(C)C (single isomer, unassigned) | 599 | 51.1 |
| CCC(CC)(c1ccc(OCC(=O)C(C)(C)C)c(C)c1)c1ccc(OC[C@H](O)C(C)(C)C)c(C)c1 | 891 | 430 |
| CCC(CC)(c1ccc(OCC(=O)C(C)(C)C)c(C)c1)c1cc(C)c(C(=O)NCC(=O)O)s1 | 1480 | 187 |
| CCC(CC)(c1ccc(OCC(O)C(C)(C)C)c(C)c1)c1cc(C)c(COCC(=O)O)s1 (stereo not drawn) |  | 453 |
| CCC(=O)NS(=O)(=O)c1sc(C(CC)(CC)c2ccc(OCC(=O)C(C)(C)C)c(C)c2)cc1C |  | 649 |
| CCC(C)[C@H](NC(=O)c1sc(C(CC)(CC)c2ccc(OCC(O)C(C)(C)C)c(C)c2)cc1C)C(=O)OC (stereo partly drawn) |  | 505 |
| CCC(CC)(c1ccc(OCC(O)C(C)(C)C)c(C)c1)c1ccc(C(=O)O)s1 (stereo not drawn) |  | 469 |
| CCC(CC)(c1ccc(OCC(=O)C(C)(C)C)c(C)c1)c1cc(C)c(S(=O)(=O)NC(=O)C2CC2)s1 |  | 1780 |
| CCC(CC)(c1ccc(OCC(=O)C(C)(C)C)c(C)c1)c1cc(C)c(S(=O)(=O)NC(=O)C(C)C)s1 |  | 1050 |
| CCC(CC)(c1ccc(OCC(=S)C(C)(C)C)c(C)c1)c1cc(C)c(S(=O)(=O)N[C@H](C)C(=O)O)s1 |  | 352 |
| CCC(O)(CC)COc1ccc(C(CC)(CC)c2cc(C)c(C(=O)NCC(=O)O)s2)cc1C |  | 822 |
| CCC(CC)(c1ccc(OCC(O)C(C)(C)C)c(C)c1)c1cc(C)c(C(=O)NCC(=O)O)s1 (stereo not drawn) |  | 10 |
| CCOC(=O)CCNS(=O)(=O)c1sc(C(CC)(CC)c2ccc(OCC(O)C(C)(C)C)c(C)c2)cc1C (stereo not drawn) |  | 437 |
| CCC(CC)(c1ccc(OCC(O)C(C)(C)C)c(C)c1)c1ccc(S(=O)(=O)NCC(=O)O)s1 (single isomer, unassigned) |  | 376 |
| CCC(CC)(c1ccc(OCC(=O)C(C)(C)C)c(C)c1)c1cc(C)c(S(=O)(=O)NC(=O)COC)s1 |  | 1070 |
| Cc1cc(C2(c3ccc(OCC(=O)C(C)(C)C)c(C)c3)CCCCC2)ccc1OCC(=O)C(C)(C)C |  | 2430 |
| CCC(CC)(c1ccc(OCC(=O)C(C)(C)C)c(C)c1)c1cc(C)c(C(=O)N(C)CC(=O)O)s1 |  | 385 |
| CCC(CC)(c1ccc(OCC(=O)C(C)(C)C)c(C)c1)c1cc(C)c(S(=O)(=O)N(C)CCC(=O)O)s1 |  | 284 |
